Source: patent publication US20260347351A1
Read-outs that look alike come from different tables or passages of the source. Values belong to the molecule of their own block, whether it stands above or below them.

Sequences of proteins named here, by UniProt entry; tags and fusion partners are left off.
UniProt Q9HCR9, whole entry: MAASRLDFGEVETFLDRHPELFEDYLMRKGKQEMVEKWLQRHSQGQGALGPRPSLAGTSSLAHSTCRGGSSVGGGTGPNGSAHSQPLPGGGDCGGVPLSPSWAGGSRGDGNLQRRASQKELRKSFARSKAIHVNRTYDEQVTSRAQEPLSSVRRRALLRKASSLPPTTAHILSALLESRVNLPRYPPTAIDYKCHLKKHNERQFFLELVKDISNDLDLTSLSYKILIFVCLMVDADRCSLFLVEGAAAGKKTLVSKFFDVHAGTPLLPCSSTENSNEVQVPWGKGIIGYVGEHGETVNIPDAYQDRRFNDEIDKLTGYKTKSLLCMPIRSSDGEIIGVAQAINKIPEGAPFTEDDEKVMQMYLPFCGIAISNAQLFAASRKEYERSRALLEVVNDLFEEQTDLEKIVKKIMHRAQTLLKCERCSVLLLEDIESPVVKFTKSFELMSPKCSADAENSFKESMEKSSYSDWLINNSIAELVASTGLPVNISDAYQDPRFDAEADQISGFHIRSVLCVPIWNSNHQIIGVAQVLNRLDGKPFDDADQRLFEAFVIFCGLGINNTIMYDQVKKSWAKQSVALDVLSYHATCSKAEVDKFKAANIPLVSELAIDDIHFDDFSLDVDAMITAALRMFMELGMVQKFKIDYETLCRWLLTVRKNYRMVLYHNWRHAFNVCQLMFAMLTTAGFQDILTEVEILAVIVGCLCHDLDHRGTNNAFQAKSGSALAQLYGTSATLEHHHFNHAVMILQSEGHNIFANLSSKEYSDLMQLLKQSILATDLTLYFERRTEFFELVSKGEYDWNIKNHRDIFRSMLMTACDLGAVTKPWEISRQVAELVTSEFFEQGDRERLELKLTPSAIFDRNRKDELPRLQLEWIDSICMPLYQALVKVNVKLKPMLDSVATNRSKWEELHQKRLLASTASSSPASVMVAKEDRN
UniProt P0C1Q2, whole entry: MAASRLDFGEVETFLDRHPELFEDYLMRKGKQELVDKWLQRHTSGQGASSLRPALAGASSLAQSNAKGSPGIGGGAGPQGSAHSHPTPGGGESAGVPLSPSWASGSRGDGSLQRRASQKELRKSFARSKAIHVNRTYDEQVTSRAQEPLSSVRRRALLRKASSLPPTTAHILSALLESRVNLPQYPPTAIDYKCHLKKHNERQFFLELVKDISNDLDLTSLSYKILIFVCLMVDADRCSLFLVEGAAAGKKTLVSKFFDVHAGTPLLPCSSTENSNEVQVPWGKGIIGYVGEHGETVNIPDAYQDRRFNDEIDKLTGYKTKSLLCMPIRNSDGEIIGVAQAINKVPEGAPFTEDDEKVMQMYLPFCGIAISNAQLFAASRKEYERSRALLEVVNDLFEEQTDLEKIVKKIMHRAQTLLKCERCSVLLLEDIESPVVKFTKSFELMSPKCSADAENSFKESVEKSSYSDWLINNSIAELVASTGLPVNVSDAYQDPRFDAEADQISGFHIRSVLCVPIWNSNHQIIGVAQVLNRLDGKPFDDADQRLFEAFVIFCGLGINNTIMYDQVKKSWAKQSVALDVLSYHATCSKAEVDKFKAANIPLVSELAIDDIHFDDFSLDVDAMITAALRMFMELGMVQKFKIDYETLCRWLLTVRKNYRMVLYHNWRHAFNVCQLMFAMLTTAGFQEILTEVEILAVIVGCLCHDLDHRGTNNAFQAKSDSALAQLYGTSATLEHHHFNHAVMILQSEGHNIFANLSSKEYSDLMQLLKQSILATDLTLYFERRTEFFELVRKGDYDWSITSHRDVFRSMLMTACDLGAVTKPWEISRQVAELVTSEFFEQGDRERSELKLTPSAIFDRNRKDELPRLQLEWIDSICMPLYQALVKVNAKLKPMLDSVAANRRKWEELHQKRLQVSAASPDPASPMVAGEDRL

Tests used:
Lipophilicity = format: physicochemical
[1] = Microsomal metabolic stability (human and mouse)
PDE11A4 [2] = target: T1, PDE11A4 (Homo sapiens, UniProt Q9HCR9); test: Cell-based cAMP- and cGMP-PDE activity in HT-22 cells transfected with human PDE11A4
PDE11A4 [3] = target: T1, PDE11A4; test: In vitro PDE11A4 enzyme inhibition assay (Ba(OH)2 precipitation method); conditions: biochemical assay
[4] = Metabolite identification from microsomal incubation (LCMS/MS)
[5] = Kinetic aqueous solubility, pH 7.4; format: physicochemical
CYP3A4, CYP2D6, CYP2C9 = test: CYP inhibition profile (CYP3A4, CYP2D6, CYP2C9); format: in vitro ADME, human
mPDE11A4 = mPDE11A4 (Mus musculus, UniProt P0C1Q2); test: Reversal of aging-like punctate accumulations of EmGFP-mPDE11A4 in HT-22 hippocampal cells; conditions: HT-22 cells overexpressing EmGFP-mPDE11A4

EC50 (PDE11A4 [2]; read-out: EC50 (μM) cAMP, cAMP-PDE activity, average of four independent experiments): 2.4 µM
EC50 (PDE11A4 [2]; read-out: EC50 (μM) cGMP, cGMP-PDE activity, average of four independent experiments): 1.7 µM
SMILES: CCN(CC)C(=O)c1cc(-c2ccnn2C)nc2c1c(C(F)F)nn2-c1ccccc1
efficacy on cyclic nucleotides in cells (in words) (PDE11A4 [2]; cAMP and cGMP, relative to tadalafil): significant improvement in efficacy compared to 1 for both cAMP and cGMP
enzymatic potency (in words) (PDE11A4 [3]): measurably more potent in the biochemical assay compared to 14b

site of metabolism [4]: the deuterated alkyl groups on the amide
SMILES: [2H]C([2H])([2H])C([2H])([2H])N(C(=O)c1cc(-c2ccnn2C)nc2c1c(C(F)F)nn2-c1ccccc1)C([2H])([2H])C([2H])([2H])[2H]
microsomal stability (in words) [1]: small improvement in microsomal stability

water solubility (in words) [5]: good water solubility
microsomal stability (in words) [1]: rapid oxidative metabolism
SMILES: CCN(CC)C(=O)c1cc(-c2cccs2)nc2c1c(C)nn2-c1ccccc1C

Continued, molecule first:

SMILES: Cc1ccccc1Nc1ncnc2c1c(-c1ccccc1)cn2-c1ccc(F)cc1
lipophilicity (in words) (Lipophilicity): highly lipophilic
microsomal stability (in words) [1]: good metabolic stability

SMILES: CCCSc1nc2c(c(=O)n1-c1ccccc1)SCC2 [BC11-38]
microsomal stability (in words) [1]: metabolically unstable

SMILES: O=c1nc2sc3ccccc3n2c(=O)n1-c1ccccc1
water solubility (in words) [5]: good water solubility
CYP profile (in words) (CYP3A4, CYP2D6, CYP2C9): favorable CYP profile
microsomal stability (in words) [1]: generally favorable metabolic stability in human and mouse microsomes

SMILES: CCN(CC)C(=O)c1cc(-c2ccnn2C)nc2c1c(C)nn2-c1ccccc1
reversal of aging-like accumulations of mPDE11A4 (mPDE11A4): able to reverse these aging-like accumulations of mPDE11A4
site of metabolism [4]: the diethyl amide was identified as a primary site for oxidative transformation
